The source of these data is PubChem BioAssay AID1159563 (GlaxoSmithKline (GSK), 2015).

The test system of this test is HepG2 cytotoxicity. As to the kind of experiment: human hepatoma cell viability loss – cytotoxicity control (AID 1159563).

Broadly, the IC50 is the concentration that inhibits the measured activity by half. As for `CC(C)(C)c1ccc(NC2(C(N)=O)CCN(Cc3ccccc3)CC2)cc1`, the IC50 was 50 µM.
